High-throughput results (PubChem BioAssay)
In the library only some 0.43% were active in any assay of this set; here they are far more common.
EPAC1 antag – blocks human EPAC1 exchange factor | O95398 | EPAC1 GEF assay, Rap1b-BODIPY-GDP exchange fluorescence | Potency, µM (series often up to 115 µM), most hits filed as inhibitors | 360,000 compounds, 0.14% hits; note: nearly all actives have a fitted effect of over 50% in size
Rango release inh – prevents RanGTP from dissociating the Rango-importin beta complex. O95149+P62826. Biochemical FRET Rango-importin beta, RanGTP-induced dissociation. Potency, µM (titrated, usually from 46.1 µM). 340,000 compounds, 0.071% hits. AID 540253; calls by dose curve; note: nearly all actives have a fitted effect of over 45% in size
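Recombinant Rango FRET biosensor (EYFP–snurportin 1 IBB–cerulean CFP10) at 0.1 uM premixed with 0.25 uM importin beta in PBS, 1 mM DTT, 0.02% Tween-20, 0.1% BSA. Compound added 5 min; RanGTP-RCC1 (0.6 uM Ran, 2 mM GTP, 0.2 uM RCC1) then triggers release, read at 45 min.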
Rango complex inh – inhibitors of Rango-importin beta complex formation. AID 540263. Potency, µM (highest dose often 92.2 µM). 340,000 compounds, 0.031% hits. Q14974. Rango CFP/YFP FRET sensor + importin beta, 45 min; calls by dose curve; note: nearly all actives have a fitted effect of over 15% in size
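FRET biosensor (snurportin 1 IBB flanked by EYFP and cerulean), 50 nM, with compound 5 min, then 0.125 microM importin beta in PBS, 1 mM DTT, 0.02% Tween-20, 0.1% BSA. CFP/YFP ratio read after 45 min at room temperature; pre-read flags interference.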
EPAC2 agonist – EPAC2 (human) agonism | Potency, µM (highest dose often 154 µM), actives largely listed as activators | EPAC2 activation, biochemical qHTS; response scale: 100% = 6.5 mM cAMP response | 360,000 compounds, 0.079% hits; note: nearly all actives have a fitted effect of over 50% in size
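Setup: EPAC2 100 nM, labeled Rap1B complex 250 nM, free GDP 50 uM. Compound titrations pinned in, brief spin, 5 min room temperature incubation. Kinetic fluorescence read over 30 min, normalized to 6.5 mM cAMP.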
EPAC2 antag – antagonists of human EPAC2; EPAC2 GEF exchange of Rap1B-BODIPY-GDP, fluorescence; Potency, µM (top dose mostly 114 µM), hits mostly inhibitors; 360,000 compounds, 0.18% hits; note: nearly all actives have a fitted effect of over 45% in size
EPAC1 agonist – agonists of human EPAC1 | O95398 | EPAC1 agonist qHTS, biochemical assay; response scale: 100% = response to 6.5 mM cAMP | 360,000 compounds, 0.073% hits | AID 720707 | Potency, µM (top dose mostly 154 µM), usual class: activators; note: nearly all actives have a fitted effect of over 60% in size
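Compounds were pinned as a concentration titration into mixtures of EPAC1 (100 nM), BODIPY-GDP-loaded Rap1B (250 nM) and GDP (50 uM). After 5 min at room temperature, fluorescence was followed for 30 min; activity was scaled to 6.5 mM cAMP.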
Hits are given with their value; i = inactive; ? = inconclusive; nt = not tested or not shown. Unless noted, calls come from the whole dose curve; as a rule, active = well fitted curve in the direction sought with a large enough effect; inconclusive = small, poorly fitted or top-dose-only effect, or another doubt; inactive = no such curve, though single readings can be large; an effect the other way counts as inactive or inconclusive.

SMILES	EPAC1 antag	Rango release inh	Rango complex inh	EPAC2 agonist	EPAC2 antag	EPAC1 agonist
Cc1ccc2c(c1)C1CN(C)CCC1N2C(=O)COc1ccc(N(C)C(=O)c2ccccc2)cc1 (stereo not given)	i	i	i	i	i	i
CCCC(=O)O[C@@H]1C[C@@H](C)N(C(=O)c2ccccc2)c2ccc(C)cc21	i	i	i	i	20µM	i
O=C(CN1C(=O)N/C(=C\c2ccccc2OCc2ccc(C(=O)O)cc2)C1=O)Nc1ccccc1F	35µM	i	?	i	i	i
CN(C)c1ccc(C(=O)/C=C/c2ccccc2)cc1	i	i	?	i	i	i
CN(C)c1ccc(C(=O)/C=C/c2ccc(Br)cc2)cc1	i	?	?	100µM	i	i
CCN(CC)c1ccc(/C=C/C(=O)c2ccc(Br)cc2)cc1	i	?	?	100µM	i	100µM
CC1=Nc2ccccc2/C1=C/c1sc(=S)n(-c2cccc(C(=O)O)c2)c1O	56µM	?	?	i	?	i
Oc1c(C=C2N=c3ccccc3=N2)sc(=S)n1-c1ccccc1	i	i	i	i	i	i
COc1ccc(C(=O)C(=O)N2CCN(c3ccc(C)cc3)CC2)cc1OC	i	nt	nt	i	i	i
CN(C)CCNc1oc(COc2ccc(Cl)cc2Cl)nc1C#N	i	16µM	?	i	i	i
COCCCNc1oc(COc2ccc(Cl)cc2Cl)nc1C#N	i	?	?	i	i	i
COc1ccc2c(c1)O/C(=C\c1sccc1C)C2=O	i	10µM	?	i	i	i
COc1ccc(/C=C2\Oc3ccccc3C2=O)cc1	i	i	i	i	i	i
CC(C)(C)c1cc(=O)n(-c2ccccc2)[nH]1	50µM	i	46µM	i	i	i
O=C(O)CCCCCN1C(=O)/C(=C\c2cn(-c3ccccc3)nc2-c2cccs2)SC1=S	i	i	?	i	i	i
O=C(O)CCCCCN1C(=O)/C(=C/c2cn(-c3ccccc3)nc2-c2cccs2)SC1=S	i	i	?	i	i	89µM
CCC(CC)C(C(=O)NCc1ccccc1)N1CCN(c2cccc(C)c2C)CC1 (stereo not given)	i	nt	nt	i	i	i
N#Cc1sc2nc(-c3ccccc3)cc(-c3ccco3)c2c1N	35µM	?	?	i	i	i
Cc1cc(C)c2sc(N(CCCN(C)C)C(=O)c3ccc(S(=O)(=O)N(C)C4CCCCC4)cc3)nc2c1	i	i	i	i	i	45µM
CN(C)CCCN(C(=O)c1ccc(S(=O)(=O)N(C)C2CCCCC2)cc1)c1nc2ccc(F)cc2s1	i	i	i	i	i	i
Cc1ccc2[nH]cc(/C=C/c3cc[n+](C)cc3)c2c1	i	?	?	?	i	100µM
COc1ccc2c(/C=C/c3cc[n+](C)cc3)c[nH]c2c1	i	i	?	i	i	i
CC[n+]1ccc(/C=C/c2c[nH]c3ccccc23)cc1	i	?	?	100µM	i	?
CC1(C(=O)Nc2ccc3c(c2)OCCO3)CN(S(C)(=O)=O)CC(=O)N1Cc1cccs1 (stereo not given)	i	nt	nt	i	i	i
CC(=O)Nc1cncc(-c2cccc(S(C)(=O)=O)c2)n1	i	nt	nt	i	i	i
SMILES	EPAC1 antag	Rango release inh	Rango complex inh	EPAC2 agonist	EPAC2 antag	EPAC1 agonist
Cc1nn2c(c1-c1ccc(Cl)cc1)N=C(c1ccco1)CC2c1ccccc1 (stereo not given)	i	i	58µM	i	i	i
CCOC(=O)c1[nH]c(C)c(C(=O)NC(C)(C)C)c1C	i	i	i	6.3µM	i	i
CCOC(=O)c1[nH]c(C)c(C(=O)NC)c1C	i	i	i	i	i	i
c1ccc(OCCNc2ccn3nc(-c4ccc(OCCN5CCOCC5)cc4)cc3n2)cc1	i	nt	nt	i	i	i
CCOC(=O)C1(C)CCCN(C(=O)C(c2ccccc2)c2ccccc2)C1 (stereo not given)	i	nt	nt	i	i	i
CSc1ccc(CN2CCC2(C)C(=O)NC2CCc3ccccc32)cc1 (stereo not given)	i	nt	nt	i	i	i
CCN(CC)c1nc2ccccc2nc1C(C#N)C(=O)NCCc1ccccc1 (stereo not given)	i	?	?	i	32µM	i
N#CC(C(=O)NCc1ccco1)c1nc2ccccc2nc1N1CCOCC1 (stereo not given)	79µM	?	?	i	?	i
CCN(CC)c1nc2ccccc2nc1C(C#N)C(=O)NCCCOC (stereo not given)	i	?	?	i	i	i
N#CC(C(=O)NCc1ccccc1)c1nc2ccccc2nc1N1CCCC1 (stereo not given)	i	?	?	89µM	i	i
N#CC(C(=O)NCCc1ccccc1)c1nc2ccccc2nc1N1CCCCC1 (stereo not given)	i	i	i	i	i	i
O=C(C[C@H]1CC[C@@H]2[C@H](COC[C@H](O)CN2C(=O)c2cnccn2)O1)NCc1ccc(Cl)cc1	i	nt	nt	i	i	i
CCOC1=C2CN(S(=O)(=O)c3ccc(C)cc3)C(c3ccccc3)CC2N(S(=O)(=O)c2ccc(C)cc2)C(c2ccc(Br)cc2)C1 (stereo not given)	i	nt	nt	i	i	i
CC(C)c1cc(Cn2c3ccccc3c(=O)n2C(C)C)on1	i	nt	nt	i	i	i
CCOc1cc(/C=C2\SC(=O)N(CC(=O)Nc3ccccc3F)C2=O)cc([N+](=O)[O-])c1O	?	i	i	i	?	i
COc1cc(/C=C2\SC(=O)N(c3ccccc3Cl)C2=O)cc([N+](=O)[O-])c1O	79µM	i	i	i	?	i
COc1cc(/C=C2/C(=O)NN(c3ccc(Cl)c(Cl)c3)C2=O)cc([N+](=O)[O-])c1O	?	i	i	i	i	i
COc1cc(/C=C2\SC(=O)N(CC(=O)Nc3cccc(C)c3)C2=O)cc([N+](=O)[O-])c1O	?	i	?	i	50µM	i
COC(=O)[C@@]12C[C@@H](CC(=O)NCCc3ccccc3OC)C(=O)N(CCc3ccc(OC)c(OC)c3)C1=CCC(C)(C)C2	i	nt	nt	i	i	i
CC1(C(=O)NS(=O)(=O)C2CC2)CCCN(C(=O)c2cc3ccccc3s2)C1 (stereo not given)	i	nt	nt	i	i	i
C=CCOC(=O)C1=C(C)NC(C)=C(C(=O)OCC=C)C1c1ccco1	i	i	i	i	45µM	i
CCCNC(=O)C1(C)CCN(Cc2ccc(OCc3ccccc3)cc2)C1 (stereo not given)	i	nt	nt	i	i	i
Cc1ccc(-n2c(O)c(C=Nc3cc(C)on3)c3ccccc3c2=O)c(C)c1	i	9.2µM	?	i	i	i
